{"source": "patent US12178871B2", "about": "(priority 2018, dated 2024)", "origin": "cited, not measured here", "test_system": "nucleases", "settings": "cited from earlier work"}
{"substance": "polyinosinic-polycytidylic acid with poly-L-lysine and carboxymethyl cellulose", "values": [{"measurement": "resistance to hydrolysis by the nucleases relative to PIC", "value": "5-10 times"}]}
